Earlier results, collected in paper PMC4245237, “Searching the Cytochrome P450 Enzymes for the Metabolism of Meranzin Hydrate: A Prospective Antidepressant Originating from Chaihu-Shugan-San” (PLoS ONE, 2014).
pIC50, pKi: −log10 of the molar value. Counter-ions that a name gives are not always drawn.

Molecular target: T1, CYP2A6 (Homo sapiens, UniProt P11509)
T1 sequence (P11509 1-494): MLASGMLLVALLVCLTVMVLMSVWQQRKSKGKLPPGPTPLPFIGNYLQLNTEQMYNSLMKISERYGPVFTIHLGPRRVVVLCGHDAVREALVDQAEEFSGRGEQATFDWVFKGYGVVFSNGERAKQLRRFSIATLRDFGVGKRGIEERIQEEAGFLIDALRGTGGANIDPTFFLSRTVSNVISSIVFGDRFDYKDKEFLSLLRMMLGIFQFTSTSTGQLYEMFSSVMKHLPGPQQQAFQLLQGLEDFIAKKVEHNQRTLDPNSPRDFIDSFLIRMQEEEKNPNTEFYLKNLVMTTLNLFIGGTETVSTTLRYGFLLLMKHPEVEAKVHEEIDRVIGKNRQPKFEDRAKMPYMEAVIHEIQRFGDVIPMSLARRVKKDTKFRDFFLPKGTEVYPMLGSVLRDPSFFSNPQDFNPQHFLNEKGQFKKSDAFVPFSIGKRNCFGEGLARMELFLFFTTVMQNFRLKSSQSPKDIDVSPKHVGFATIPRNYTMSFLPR
Details: cited from earlier work

N[C@@H]1C[C@H]1c1ccccc1 (relative stereo) [TRA, trans-2-phenylcyclopropylamine hydrochloride]
pIC50 (read-out: IC50, specific inhibitor reported value): 6.38
pKi (read-out: Ki, specific inhibitor reported value): 6.77
